The numbers were not newly measured in US12325866B2, “Systems and methods for growing cells in vitro” (Yissum Research Development Company of the Hebrew …, priority 2016, dated 2025), which cites them from elsewhere.

The subject of this data set is cell growth. To be noted: cited from earlier work.

In the case of `N` [Ammonia], the “Concentration at which toxic and limiting cell growth” value is 5000 µM.
